The values that follow come from patent US11273167B2, “Compositions and methods for modulating ABHD2 activity” (The Regents of the University of California, priority 2015, dated 2022).

One test deals with human CatSper channel. Nature of the test: Whole-cell patch-clamp recording of CatSper currents (ICatSper) from human spermatozoa. The settings on record: human spermatozoa. As to the method: All CatSper recordings was performed as described in (Lishko et al., 2013; Lishko et al., 2011). Briefly, gigaohm seal between the patch pipette and human spermatozoon was formed at the cytoplasmic droplet. Spermatozoa were patched either at the cytoplasmic droplet or, if the cytoplasmic droplet was inconspicuous, at the neck region. Seals were formed in high saline (HS) solution containing: 130 mM NaCl, 5 mM KCl, 1 mM MgSO4, 2 mM CaCl2, 5 mM glucose, 1 mM sodium pyruvate, 10 mM lactic acid, 20 mM HEPES, pH 7.4 adjusted with NaOH, 320 mOsm/L. Transition into the whole-cell mode was performed by applying short voltage pulses. Access resistance was 25-40 M. Cells were stimulated every 5 s. Data were sampled at 2-5 kHz and filtered at 1 kHz. […] Data were analysed with Origin 7.0 and Clampfit 9.2. Statistical data were calculated as the mean±S.E.M., and (n) indicates number of experiments. […] The data were fitted with Boltzmann equation y=1/(1+exp((x−t)/dx)) and mean ti numbers were determined from (n) independent experiments. […]
Data were analyzed with Origin 7.0 and Clampfit 9.2. Statistical data were calculated and represented everywhere in text as the mean±S.E.M., and (n) indicates number of experiments. […] The data were fitted with Boltzmann equation y=1/[1+exp((x−τ)/dx)] and mean τ numbers were determined from (n) independent experiments. […]
In general terms: The patch-clamp technique gives a direct electrical read-out from membranes.

Another test deals with mouse spermatozoa. Put plainly: Acrosome exocytosis assessment in live capacitated mouse sperm. To be noted: 2 μM MAFP pre-incubation. It is filed as cell-based.
For a further test, the system named is human spermatozoa. Put plainly: Sperm motility analysis (CASA). The settings on record: MAFP 2 μM pre-incubation, progesterone 3 μM. It is filed as cell-based.

In the case of methyl arachidonyl fluorophosphanate, the “effect on prostaglandin E1 (PGE1)-stimulated CatSper activation” value in the test with human CatSper channel was “no appreciable influence”. In the test on human CatSper channel (extracellular application), the “effect on nascent/basal CatSper current” value is listed as “no effect on basal CatSper activity”. In the test on mouse spermatozoa, the “effect on P4-stimulated mouse acrosome reaction” value is recorded as “blocks the P4 effect”. Also, the “effect on P4-induced motility changes” value with human spermatozoa is on record as “ablated P4-induced motility changes”.
